Patent US20130085133A1, “ANTI-VIRAL TREATMENT AND ASSAY TO SCREENFOR ANTI-VIRAL AGENT” (Sourthern Research Institute Office of Commercialization …, priority 2010, published 2013)

Experiment: cytotoxicity assay (percent viability of HEp-2 cells, Cell Titer-Glo)
Conditions: human

COc1ccc(-c2cn3cccnc3n2)cc1 [AB00288908]
CC50 at 6 days: > 25 mg/L
